This is an account of results in US9278990B2, “Substituted nucleotide analogs” (priority 2010, dated 2016).

SMILES strings stand for the structures.

The test system of this experiment is HCV genotype 1b HCV replicon harbored in Huh7 cells. Kind of experiment: Combination testing in HCV replicon (CalcuSyn CI and MacSynergy II synergy volume). The class given is cell-based. As to conditions: combination of compound 3b with the listed combination compound; MacSynergy II (Bliss independence); 72 h; 25-100 synergistic, >100 strongly synergistic. On the procedure:
Two or more test compounds were tested in combination with each other using an HCV genotype 1b HCV replicon harbored in Huh7 cells with a stable luciferase (LUC) reporter. Cells were cultured under standard conditions in Dulbecco's modified Eagle's medium (DMEM; Mediatech Inc, Herndon, Va.) containing 10% heat-inactivated fetal bovine serum (FBS; Mediatech Inc, Herndon, Va.) 2 mM L-glutamine, and nonessential amino acids (JRH Biosciences). HCV replicon cells were plated in a 96-well plate at a density of 10^4 cells per well in DMEM with 10% FBS. […] The cells were incubated with no compound as a control, with the test compounds, or the combination of compounds for 72 h. The direct effects of the combination of the test compounds were examined using a luciferase (LUC) based reporter as determined by the Bright-Glo Luciferase Assay (Promega, Madison, Wis.). Dose-response curves were determined for individual compounds and fixed ratio combinations of two or more test compounds.
The effects of test compound combinations were evaluated by two separate methods. In the Loewe additivity model, the experimental replicon data was analyzed by using CalcuSyn (Biosoft, Ferguson, Mo.), a computer program based on the method of Chou and Talalay. The program uses the experimental data to calculate a combination index (CI) value for each experimental combination tested. […]

On to `CS(=O)(=O)Nc1ccc2c(c1)S(=O)(=O)N=C(C1=C(O)[C@@H]3[C@H]4CC[C@H](C4)[C@@H]3N(Cc3ccc(F)cc3)C1=O)N2` [ANA-598], for which the “Synergy Volume” value was 161 μM^2%.
